From PMC9354050 come the findings set out here.

Amino acid sequences for entries named in this document (tags omitted).
UniProt Q9Y239, whole entry: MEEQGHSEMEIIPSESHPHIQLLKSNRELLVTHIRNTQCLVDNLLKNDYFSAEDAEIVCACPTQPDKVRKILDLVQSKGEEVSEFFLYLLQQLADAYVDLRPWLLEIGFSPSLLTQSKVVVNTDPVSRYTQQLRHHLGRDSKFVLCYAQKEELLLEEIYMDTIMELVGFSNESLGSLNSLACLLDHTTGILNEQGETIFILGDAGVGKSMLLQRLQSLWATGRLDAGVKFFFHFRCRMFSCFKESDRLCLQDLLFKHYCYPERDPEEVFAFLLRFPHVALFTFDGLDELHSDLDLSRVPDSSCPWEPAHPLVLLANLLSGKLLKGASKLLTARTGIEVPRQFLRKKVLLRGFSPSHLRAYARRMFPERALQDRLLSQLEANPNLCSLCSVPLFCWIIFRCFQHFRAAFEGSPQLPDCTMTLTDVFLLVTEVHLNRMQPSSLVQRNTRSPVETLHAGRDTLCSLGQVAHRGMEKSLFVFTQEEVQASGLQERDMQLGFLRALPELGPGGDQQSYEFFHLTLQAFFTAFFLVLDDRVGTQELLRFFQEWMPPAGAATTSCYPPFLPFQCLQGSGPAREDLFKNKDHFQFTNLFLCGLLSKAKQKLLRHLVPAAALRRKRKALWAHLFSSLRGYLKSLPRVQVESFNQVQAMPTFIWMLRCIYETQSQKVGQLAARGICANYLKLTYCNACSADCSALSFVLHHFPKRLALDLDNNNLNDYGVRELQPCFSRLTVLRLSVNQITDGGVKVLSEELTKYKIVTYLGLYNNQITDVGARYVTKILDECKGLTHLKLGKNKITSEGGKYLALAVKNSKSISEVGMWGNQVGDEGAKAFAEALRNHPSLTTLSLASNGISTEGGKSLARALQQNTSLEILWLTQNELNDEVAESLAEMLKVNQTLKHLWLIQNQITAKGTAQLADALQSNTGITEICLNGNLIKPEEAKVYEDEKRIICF

The test addresses Nucleotide-binding oligomerization domain 1 (NOD1) (Homo sapiens, UniProt Q9Y239). Description: HEK-Blue NOD1 cell NF-κB/SEAP reporter assay (agonism). Particulars: read-out: NOD1 EC50 ^b. For orientation: Reporter assays use an easily measured gene product as a stand-in for the process of interest.

Molecules are shown by their SMILES. Like-named read-outs stand apart in the source and are kept apart here.

One may read the EC50 as the concentration that produces a half-maximal response.

`CCCCCCCCCCCCN(CCCCCCCCCCCC)[C@H](CCC(=O)N[C@@H](/C=C/C[C@@H](N)C(=O)O)C(=O)O)C(=O)O`: under “tested form: bis-TFA salt”, the EC50 is 162 nM.

For the compound `CCCCCCCCCCCC(=O)N[C@H](CCC(=O)N[C@@H](C/C=C/[C@@H](N)C(=O)O)C(=O)O)C(=O)O`, the 50% effective concentration (EC50) (tested form: TFA salt) was determined as 686 nM.

Take `CCCCCCCCCCCC(=O)N[C@H](CCC(=O)N[C@@H](/C=C/C[C@@H](N)C(=O)O)C(=O)O)C(=O)O`: where the note is “tested form: TFA salt”, the EC50 worked out at 46 nM.

With `CCCCCCCCCCCCN(CCCCCCCCCCCC)[C@H](CCC(=O)N[C@@H](C/C=C/[C@@H](N)C(=O)O)C(=O)O)C(=O)O` (single isomer, unassigned), the EC50 (tested form: bis-TFA salt) worked out at 127 nM.
